We go through seven substances from article PMC11767661 (Molecules, 2025).

Data set [1] in a line: Peptide hydrolysis in Hepes buffer alone or with Cu2+/Zn2+, followed by HPLC-ESI/MS. The conditions noted are these: for Fragment amount of Aβ16 detected by HPLC-MS (row Aβ16 = intact peptide): 50 mM Hepes pH 7.4, 37 °C, HPLC-ESI/MS relative % area; for Remaining amount of Aβ16 and species detected by LC-MS (Table S1) / Remaining amount of Aβ28 and species detected by LC-MS (Table S2): 50 mM HEPES pH 7.4, 4 °C, LC-MS relative % area. The class given is physicochemical. Here is the method:
Herein, we analyzed the hydrolytic process of Aβ peptides in 50 mM Hepes buffer at 7.4 physiological pH over two weeks at two distinct temperatures, 4 °C and 37 °C, using mass spectrometry coupled with high-performance liquid chromatography (HPLC-MS) for precise analysis. Additionally, we explored the impact of copper(II) or zinc(II) ions, each added in a 1:1 molar ratio to the peptides, on the resulting hydrolytic fragmentation patterns. It is worth noting that metal binding only occurs at the N-terminal region of Aβ peptides, specifically interacting with histidine residues. The commonly accepted peptide sequence 1–16 (^1DAEFRHDSGYEVHHNK^16, Aβ16) is widely used as a model for this interaction due to its inclusion of all three histidines (His6, His13, and His14) known for their key roles in coordinating metal ions. Therefore, the initial studies were performed on this short peptide. Aβ16 has the further advantage of minimizing the aggregation processes that normally occur with longer Aβ peptides. In the latter case, the co-presence of hydrolytic and aggregation/precipitation pathways in the peptide mixtures could preclude the detection and the quantitative estimation of the fragmentation patterns. In this way, the hydrolytic products have been easily identified through b and y fragments in the MS/MS signals and quantified via their relative percentage areas in the LC-MS chromatograms.
General. All chemicals were of reagent grade and purchased from Sigma-Aldrich. Preparative HPLC was carried out with a Shimadzu LC-20AD Prominence instrument equipped with a diode array detector. Mass spectra and LCMS/MS data were performed with an LCQ ADV MAX ion-trap mass spectrometer equipped with an ESI ion source. The instrument was run in an automated LC-MS/MS mode and using a surveyor HPLC system (Thermo Finnigan, San Jose, CA, USA) equipped with a Phenomenex Jupiter 4u Proteo column (4 μm, 150 × 2.0 mm). For the analysis of peptide fragments, Bioworks 3.1 and Xcalibur 2.0.7 SP1 software were used (Thermo Finnigan, San Jose, CA, USA).
Peptide hydrolysis in the presence of metal ions. Solutions of Aβ16 and Aβ28 (500 µM) alone or with the addition of Cu(NO3)2 (1 eqv., 500 µM) or ZnCl2 (1 eqv., 500 µM) were prepared in 50 mM Hepes buffer at pH 7.4. The solutions were then incubated at 4 °C or 37 °C (only for Aβ16) in atmospheric air and every 7 days aliquots were taken, diluted to the 25 µM final concentration with Hepes buffer, and analyzed by HPLC-ESI/MS. The solution of R1τ, Ac-R1τ, αSyn15, and Ac-αSyn15 (25 µM) fragments were incubated in 50 mM Hepes buffer at 4 °C for 14 days; at the same time, solutions also containing copper(II) or zinc(II) in a 1:1 molar ratio respect to peptide were prepared. The elution was performed by using 0.1% HCOOH in distilled water (solvent A) and 0.1% HCOOH in acetonitrile (solvent B), with a flow rate of 0.2 mL/min. Elution started with 98% solvent A for 5 min, followed by a linear gradient from 98 to 55% A in 55 min. MS/MS experiments by collision-induced dissociation (CID) were performed with an isolation width of 2 Th (m/z); the activation amplitude was around 35% of the ejection radiofrequency (RF) amplitude of the instrument. For the analysis of peptide fragments, Bioworks 3.1 and Xcalibur 2.0.7 SP1 software were used (Thermo Finnigan, San Jose, CA, USA).

A short description of data set [2]: 50 mM Hepes buffer at pH 7.4 with ZnCl2 (1 eqv., 500 µM).
Data set [3] can be described thus: HEPES buffer (50 mM) pH 7.4 with 500 µM zinc(II) chloride (Aβ16). The conditions noted are these: 4 °C, up to 21 days.
The nature of data set [4]: 50 mM Hepes buffer at pH 7.4 with Cu(NO3)2 (1 eqv., 500 µM). The conditions noted are these: 37 °C, up to 21 Days.
Data set [5] in a line: HEPES buffer (50 mM) pH 7.4, Aβ16 alone. The conditions noted are these: 4 °C, up to 21 days.
The nature of data set [6]: 50 mM Hepes buffer at pH 7.4, peptide alone. The conditions noted are these: 37 °C, up to 14 Days.
Data set [7] can be described thus: HEPES buffer (50 mM) pH 7.4 with 500 µM copper(II) nitrate (Aβ16). The conditions noted are these: 4 °C, up to 21 days.
Setting [8] is: hydrolytic stability, Aβ16 500 µM alone, atmospheric air, 7 days, aliquot diluted to 25 µM.
Where [9] appears, read: hydrolytic stability, Aβ16 500 µM alone, atmospheric air, 14 days.
[10] abbreviates: Aβ16 500 µM + 500 µM copper(II) nitrate (1 equiv.), 7 days.
Where [11] appears, read: Aβ16 500 µM + 500 µM copper(II) nitrate (1 equiv.), 14 days.
Where [12] appears, read: Aβ16 500 µM + 500 µM copper(II) nitrate (1 equiv.), 21 days.
Setting [13] is: Aβ16 500 µM + 500 µM zinc(II) chloride (1 equiv.), 21 days.
The mark [14] stands for this setting: Aβ16 500 µM + 500 µM zinc(II) chloride, 21 days.
Where [15] appears, read: Aβ28 500 µM + 500 µM copper(II) nitrate, 21 days.
The mark [16] stands for this setting: Aβ28 500 µM + 500 µM zinc(II) chloride, 14 days.
[17] abbreviates: Aβ28 500 µM + 500 µM zinc(II) chloride, 21 days.

“Also recorded” adds a separate entry of the source.

For “AEFRHDSGYEVHH [hydrolytic fragment 2–14 of Aβ16]”, the “Fragment amount of Aβ16 detected by HPLC-MS (row Aβ16 = intact peptide)” value (from here on “Fragment amount of Aβ16 detected”) in data set [1] (setting [8]) and in data set [1] (setting [9]) was 2% in each case.
As to “DAEFRHDSGYEV [hydrolytic fragment 1–12 of Aβ16]”, the “Fragment amount of Aβ16 detected” value in data set [1] (setting [10]) is 2%; in data set [1] (setting [11]), 7%; in data set [1] (setting [12]), 13%; in data set [1] (setting [13]), 5%; in data set [1] (setting [9]), 2%.
Turning to “DAEFRHDSGYEVH [hydrolytic fragment 1–13 of Aβ16 and Aβ28]”, the “Fragment amount of Aβ16 detected” value in data set [1] (setting [10]) was found to be 2%; in data set [1] (setting [11]) it was 8%; in data set [1] (setting [12]) it was 13%; in data set [1] (Aβ16 500 µM + 500 µM zinc(II) chloride (1 equiv.), 7 days) it was 7%; in data set [1] (Aβ16 500 µM + 500 µM zinc(II) chloride (1 equiv.), 14 days), 13%; in data set [1] (setting [13]), 51%. The entries for the “Fragment amount of Aβ16 detected” value in data set [1] (setting [8]) and in data set [1] (setting [9]) were 17% and 19%, respectively. Further, the “Remaining amount of Aβ16 and species detected by LC-MS (Table S1)” value (shortened to “Remaining amount … (Table S1)”) is recorded as 2% in data set [1] (Aβ16 500 µM + 500 µM copper(II) nitrate, 21 days); 1% in data set [1] (Aβ16 500 µM + 500 µM zinc(II) chloride, 7 days); 1% in data set [1] (Aβ16 500 µM + 500 µM zinc(II) chloride, 14 days); 3% in data set [1] (setting [14]); 6% in data set [1] (Aβ16 500 µM alone, 14 days); 3% in data set [1] (Aβ16 500 µM alone, 21 days). The “Remaining amount of Aβ28 and species detected by LC-MS (Table S2)” value stood at 3% in data set [1] (setting [15]); 2% in data set [1] (setting [16]); 5% in data set [1] (setting [17]); 3% in data set [1] (Aβ28 500 µM alone, 14 days).
For “DAEFRHDSGYEVHH [hydrolytic fragment 1–14 of Aβ16]”, the “Fragment amount of Aβ16 detected” value in data set [1] (setting [10]) was found to be 2%; in data set [1] (setting [12]) it was 2%; in data set [1] (setting [8]), 3%; in data set [1] (setting [9]), 8%. Also, the “Remaining amount … (Table S1)” value in data set [1] (setting [14]) turned out to be 1%; in data set [1] (Aβ16 500 µM alone, 14 days) it was 2%; in data set [1] (Aβ16 500 µM alone, 21 days), 4%.
For DAEFRHDSGYEVHHNK-NH2, in data set [2] (4 °C, up to 21 days), the cleaved bond result is recorded as “H13-H14, 7 days”.
With “DAEFRHDSGYEVHHQ [hydrolytic fragment 1–15 of Aβ16 and Aβ28]”, in data set [1] (Aβ16 500 µM alone, 21 days), the “Remaining amount … (Table S1)” value was 3%. The “Remaining amount of Aβ28 and species detected by LC-MS (Table S2)” value came to 1% in data set [1] (Aβ28 500 µM + 500 µM copper(II) nitrate, 14 days); 4% in data set [1] (setting [15]); 12% in data set [1] (setting [16]); 20% in data set [1] (setting [17]); 17% in data set [1] (Aβ28 500 µM alone, 14 days).
Take ^1DAEFRHDSGYEVHHNK^16-NH2: the fragment found result in data set [2] (37 °C, up to 21 Days) is recorded as “SGYEVH (8–13), 14 Days; also recorded: FRHDSGYEVH (4–13), 7 Days; also recorded: DAEFRHDSGYE (1–11), 21 Days; also recorded: DAEFRHDSGYEVH (1–13), 7 Days; also recorded: DAEFRHDSGYEV (1–12), 21 Days”; in data set [4], “FRHDSGYEVH (4–13), 7 Days; also recorded: DAEFRHDSGYEVHH (1–14), 7 Days; also recorded: DAEFRHDSGYE (1–11), 14 Days; also recorded: DAEFRHDSGYEVH (1–13), 7 Days; also recorded: DAEFRHDSGYEV (1–12), 7 Days”; in data set [6] it was “DAEFRHD (1–7), 7 Days; also recorded: DAEFRHDSGYEV (1–12), 14 Days; also recorded: SGYEVH (8–13), 7 Days; also recorded: AEFRHDSGYE (2–11), 7 Days; also recorded: AEFRHDSGYEVHH (2–14), 7 Days”; in data set [7], “pyruvate(D)-AEFRH…. 1*-16, 21 days”. Besides, the cleaved bond result in data set [3] is “Y10-E11, 14 days; also recorded: H13-H14, 7 days”; in data set [5] it was “E11-V12, 14 days; also recorded: H13-H14, 14 days”; in data set [6] it was “His13-His14, 7 Days”; in data set [7], “E11-V12, 21 days; also recorded: H13-H14, 21 days”.
